Measurements published in patent publication US20230322924A1.

Legend:
[1] = biological target: Human CD33 ECD-HSA (human); experiment: ProteOn SPR, mAb captured by anti-human Fc, 1:1 Langmuir fit
[2] = biological target: Cyno CD33 ECD-HSA (cynomolgus monkey); experiment: as above
[3] = biological target: Cyno CD33 full length, expressed on HEK293F cells (cynomolgus monkey); experiment: flow cytometry, HEK293F cells expressing cyno CD33
[4] = biological target: Human CD33 full length, expressed on HEK293F cells (human) (UniProt P20138); experiment: flow cytometry, HEK293F cells expressing human CD33
[5] = biological target: Human CD33 ECD-HSA (human); experiment: SPRi off-rate screen (IBIS MX96), mAb captured by anti-human Fc; column head prints KD
[6] = biological target: Cyno CD33 ECD-HSA (cynomolgus monkey); experiment: SPRi off-rate screen (IBIS MX96), mAb captured by anti-human Fc; column head prints Cyno CD33 binding KD

Kd [1] [nM] | koff [1] [s⁻¹] | kon [1] [M⁻¹ s⁻¹] | Kd [2] [nM] | koff [2] [s⁻¹] | kon [2] [M⁻¹ s⁻¹] | MFI at 0 nM mAb (background) [3] [MFI] | MFI at 0.6 nM mAb [3] [MFI] | MFI at 6 nM mAb [3] [MFI] | MFI at 60 nM mAb [3] [MFI] | MFI at 0 nM mAb (background) [4] [MFI] | MFI at 0.6 nM mAb [4] [MFI] | MFI at 6 nM mAb [4] [MFI] | MFI at 60 nM mAb [4] [MFI] | koff [5] [s⁻¹] | koff [6] [s⁻¹] | Substance
11.4 | 0.00441 | 385000 | 2.15 | 0.00132 | 616000 | 124 | 1710 | 5580 | 12200 | 95.9 | 4520 | 29600 | 164000 | 0.00416 | 0.0012 | C33B75 (antibody)
 |  |  |  |  |  | 83.3 | 78.6 | 85.9 | 104 | 138 | 112 | 79.7 | 144 | 0.00402 | 0.000846 | C33B56 (antibody)
15.4 | 0.0074 | 482000 | 9.56 | 0.00806 | 844000 | 80.8 | 1640 | 9590 | 14800 | 87.4 | 6400 | 44400 | 155000 | 0.00599 | 0.00698 | C33B95 (antibody)
5.1 | 0.00221 | 433000 | 1.71 | 0.00101 | 590000 | 99.8 | 3100 | 9690 | 21100 | 115 | 7560 | 54100 | 200000 | 0.00171 | 0.00121 | C33B64 (antibody)
